Experimental findings from patent US10172951B2, “Dendrimer based nanodevices for therapeutic and imaging purposes” (priority 2009, dated 2019) are described below.

A short description of data set [1]: Solubility in PBS/H2O. The format is physicochemical.
The nature of data set [2]: Transmembrane transport and permeability, amnion. Conditions: amnion alone. The data set is classed as in vitro ADME, human. The source says:
(§1) All human fetal membrane specimens were obtained at the time of cesarean section for obstetrical indications. The fetal membrane comprising chorioamniotic membrane (intact membranous tissue containing both amnion and chorion together) (n=7) and amnion (n=7) and chorion (n=7) were separately procured (size 6×9″). Each membrane was cut into 9 pieces for the 9 sets of diffusion chamber. The fresh membranes were collected immediately after the delivery, washed with PBS to remove the blood and stored in PBS until (˜1 h at 4° C.) it was mounted on the diffusion chamber (37±0.5° C.). Excess membranes were trimmed. […] Further, some sections were analyzed by hematoxylin and eosin (H & E) staining. The membrane thickness was measured using the Mitutoyo Super Caliper by placing the respective membranes between the two glass slides and subtracting the thickness of the glass slides without the membrane.
(§2) Permeation experiments were carried out using a two-chamber (donor and receptor) side-by-side Permegear diffusion cell with a chamber volume of 3 mL and with a diameter of 13 mm and a diffusional area of 1.32 cm^2. […] The donor cell (volume 3 mL) was filled with solution of compounds whose permeability was evaluated. […] The concentration of compound in the receptor medium was determined using a Molecular Devices SpectroMax M2, UV visible and Fluorescent plate reader at ex 495/em 521. […]

Data set [3] in a line: Transmembrane transport and permeability, chorion. The format is in vitro ADME, human. Conditions: chorion alone.
From the text: as §1, §2

Data set [4] is described as follows: Transmembrane transport and permeability, chorioamnion. The format is in vitro ADME, human. The following applies: chorioamnion (intact membrane).
From the text: as §1, §2

On to “fluorescein isothiocyanate [FITC, reference compound]”, for which, in data set [1], the “Solubility in PBS/H2O” value was “Not soluble and Not”. The “permeability relative to G4-PAMAM-dendrimer” value in data set [2] stood at 100 folds; in data set [3] it was 100 folds; in data set [4], 10 fold.
